One data set addresses EGFR kinase (Homo sapiens (Human), UniProt P00533). Kind of data set: EGFR Kinase Activity Assay (Time-Resolved fluorescence). In kind it is biochemical. Particulars: human-derived recombinant EGFR kinase, 20 μM ATP, 25° C., 45 minutes; read-out: IC50 (EGFR/BIO). As to the method: The in vitro EGFR kinase activity was tested by the following assay.
The following assay may be used to determine the activity of the compounds of the invention for inhibiting EGFR kinase activity. […] EGFR kinase used in this assay is a human-derived recombinant protein (Cell signaling technology, #7908), which was reacted with peptide substrate and different concentrations of tested compounds in a buffer solution containing 60 mM HEPES (pH7.5), 5 mM MgCl2, 5 mM MnCl2, 3 μM Na3VO4, […] (1000×) and 20 μM ATP at 25° C., for 45 minutes. The EGFR kinase activity was determined by using a Time-Resolved fluorescence method.

By UniProt entry, the sequences of proteins in these tests, tags left out. Residues count along the entry.
UniProt P00533, 25-1210: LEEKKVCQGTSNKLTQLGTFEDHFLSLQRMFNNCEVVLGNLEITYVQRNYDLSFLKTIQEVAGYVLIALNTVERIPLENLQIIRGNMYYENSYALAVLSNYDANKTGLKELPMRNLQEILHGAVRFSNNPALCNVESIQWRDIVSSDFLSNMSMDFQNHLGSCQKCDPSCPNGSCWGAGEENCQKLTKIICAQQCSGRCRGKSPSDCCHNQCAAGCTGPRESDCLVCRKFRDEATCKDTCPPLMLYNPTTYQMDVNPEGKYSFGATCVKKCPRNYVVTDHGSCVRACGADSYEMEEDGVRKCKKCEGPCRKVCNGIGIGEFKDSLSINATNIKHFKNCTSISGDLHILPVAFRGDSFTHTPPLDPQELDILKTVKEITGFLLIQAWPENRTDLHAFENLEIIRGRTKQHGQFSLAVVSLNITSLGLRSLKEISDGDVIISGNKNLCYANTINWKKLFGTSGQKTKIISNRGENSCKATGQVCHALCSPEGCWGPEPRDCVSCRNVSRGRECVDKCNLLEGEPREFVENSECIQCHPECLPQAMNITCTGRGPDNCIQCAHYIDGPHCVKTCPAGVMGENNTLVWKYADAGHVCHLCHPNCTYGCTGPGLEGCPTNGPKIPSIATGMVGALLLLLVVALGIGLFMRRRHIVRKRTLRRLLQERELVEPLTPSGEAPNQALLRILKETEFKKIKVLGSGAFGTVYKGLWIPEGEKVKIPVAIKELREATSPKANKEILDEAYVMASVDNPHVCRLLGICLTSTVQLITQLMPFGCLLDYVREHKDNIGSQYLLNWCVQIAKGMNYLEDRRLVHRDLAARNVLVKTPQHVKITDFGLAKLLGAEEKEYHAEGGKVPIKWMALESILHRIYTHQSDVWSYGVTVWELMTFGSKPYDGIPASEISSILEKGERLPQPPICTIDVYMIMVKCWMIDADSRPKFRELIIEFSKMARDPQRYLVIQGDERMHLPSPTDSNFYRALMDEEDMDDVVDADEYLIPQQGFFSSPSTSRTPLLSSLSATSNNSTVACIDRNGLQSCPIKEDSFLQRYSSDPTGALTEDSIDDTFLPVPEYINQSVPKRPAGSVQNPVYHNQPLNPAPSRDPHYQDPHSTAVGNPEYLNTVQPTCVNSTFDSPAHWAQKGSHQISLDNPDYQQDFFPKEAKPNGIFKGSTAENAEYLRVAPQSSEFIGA

Data set [1] is described as follows: Pharmacokinetics Assay in rats, intragastric administration, LC/MS/MS. Format: in vivo. Particulars: both sexes, rat, plasma, po, SD rats, 25 mg/kg, read-out: Mean Residence Time MRT. From the text:
The compounds of Example 1 and Example 5 of the present invention were administrated intragastrically to rats to determine the drug concentration in plasma at different time points by LC/MS/MS method. The pharmacokinetic behavior of the compounds of the present invention was studied and evaluated in rats. 8 healthy adult SD rats, male and female in half, were purchased from SINO-BRITSH SIPPR/BK LAB. ANIMAL LTD., CO, License number: SCXK (Shanghai) 2003-0002 The right amount of compounds were weighted and grinded with 0.5% Sodium Carboxymethyl cellulose uniformly, suspended them with 1% tween 80 to 2.5 mg/mL of suspension before use. […] 8 Healthy adult adult SD rats, male and female in half, were divided into 2 groups. After an overnight fast, the rats were administered intragastrically at a dose of 25.0 mg/kg. […] The plasma samples were stored at −20° C. until analysis. The rats were fed 2 hours after administration. 50 μL of rat plasmas taken at various time points after administration were mixed with 50 μL of standard series solution to obtain plasma concentration of 50.0, 100, 200, 500, 1000, 2000, 5000 ng/mL. 150 μL methanol was added and then the mixture was mixed for 3 minute using a vortexer and centrifuged for 10 minutes at 13,500 rpm. 10 μL of the supernatant was analyzed by LC-MS/MS. The main pharmacokinetic parameters were caculated by DAS 2.0 software.

For data set [2], the system named is human epidermoid carcinoma A431 cells. Kind of data set: EGFR Cell Proliferation Inhibition Assay (SRB method, 72 hours). In kind it is cell-based. Particulars: A-431, 72 h, read-out: IC50 (EGFR/A431). From the text: The activity is represented by the IC50 value. The general procedures of the assay are given as follows: The cancer cells A431 that highly expressing EGFR (Institute of biochemistry and cell biology) were chosen and seeded to 96-well cell culture plate at a suitable concentration (e.g., 5000 cells/mL medium). […] Then, the cell culture medium was replaced by fresh one with tested compounds added in it at serial concentrations (general 6 to 7 concentrations). Then the cells were put back to the incubator and cultured continuously. 72 hours later, the activity of the tested compounds for inhibiting the cell proliferation was determined by using Sulforhodamine B (SRB) method. IC50 value on tested cells are calculated by the data of inhibition rates of serial concentrations of the tested compounds.

For orientation: MRT means a mean duration of stay, worked out from the concentration-time curve. Regarding `CCOc1cc2ncc(C#N)c(Nc3ccc(OCc4ccccn4)c(Cl)c3)c2cc1NC(=O)/C=C/[C@H]1CCCN1C` [Example 5, (E)-N-[4-[[3-Chloro-4-(2-pyridylmethoxy)phenyl]amino]-3-cyano-7-ethoxy-6-quinolyl]-3-[(2R)-1-methylpyrrolidin-2-yl]prop-2-enamide], the figures for the IC50 (on EGFR kinase; in data set [2]) were 13 nM and 45 nM, respectively. Also, the MRT in data set [1] was found to be 7.66 ± 0.75 h.

On to `CCOc1cc2ncc(C#N)c(Nc3ccc(OCc4ccccn4)c(Cl)c3)c2cc1NC(=O)/C=C/[C@@H]1CCCN1C` [Example 1, (E)-N-[4-[[3-Chloro-4-(2-pyridylmethoxy)phenyl]amino]-3-cyano-7-ethoxy-6-quinolyl]-3-[(2S)-1-methylpyrrolidin-2-yl]prop-2-enamide], for which the results for the IC50 (at EGFR kinase; in data set [2]) were 48 nM and 22 nM, respectively.

Source of the values: patent publication US8901140B2, “6-amino quinazoline or 3-cyano quinoline derivatives, preparation methods and pharmaceutical uses thereof” (Jiangsu Hengrui Medicine Co., Ltd., priority 2009, dated 2014).
